Only a part is listed here, and it is no random draw. Active and inactive are the calls of the source.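 How the source made its calls: active means more than half of replicates show inhibition above 20%; inconclusive means some but at most half of replicates above 20% inhibition; inactive means no replicate shows inhibition above 20%.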
Target: Glycogen synthase kinase-3 alpha (Homo sapiens) (UniProt P49840)
Assay: blockers of GSK3A enzyme activity – biochemical, luminescence, cell-free homogeneous, HTS, primary screen (AID 2650);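 further: GST-tagged GSK-3 alpha with peptide substrate and 25 µM ATP; 0% = DMSO neutral wells and 100% = GW8510 positive control wells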
Conditions: GSK-3 alpha kinase, ADP-Glo luminescence, 60 min; at 10 µM; stronger effect = higher value

Chains of the proteins cited; added tags and fusions are not shown. Lines headed by an entry give the natural chain unless they say otherwise; changes in a name come on top.
UniProt P49840: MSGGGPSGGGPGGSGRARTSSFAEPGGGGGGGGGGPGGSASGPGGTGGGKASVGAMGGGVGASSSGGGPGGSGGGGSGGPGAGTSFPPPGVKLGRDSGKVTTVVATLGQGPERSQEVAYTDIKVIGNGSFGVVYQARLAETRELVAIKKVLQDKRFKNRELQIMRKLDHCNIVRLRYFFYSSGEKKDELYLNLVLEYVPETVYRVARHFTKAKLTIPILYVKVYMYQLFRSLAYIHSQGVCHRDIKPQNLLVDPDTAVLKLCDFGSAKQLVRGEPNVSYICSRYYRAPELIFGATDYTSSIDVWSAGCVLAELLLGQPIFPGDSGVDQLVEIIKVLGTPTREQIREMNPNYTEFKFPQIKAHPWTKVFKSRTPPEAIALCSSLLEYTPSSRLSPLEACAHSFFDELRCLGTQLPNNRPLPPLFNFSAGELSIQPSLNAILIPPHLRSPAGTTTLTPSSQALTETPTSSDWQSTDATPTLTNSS

SMILES	inhibition
O=C(Nc1cc([As](=O)(O)O)ccc1O)c1ccccc1	inactive: -0.561%
O=[N+]([O-])c1cccc(NC2=NCC(CBr)S2)c1 (stereo unspecified)	inactive: 18.4%
O=C(O)CNc1ccc([As](=O)(O)O)cc1	inactive: -3.07%
CC(C)(C)C(=O)NC(Sc1ccncn1)C(Cl)(Cl)Cl (stereo unspecified)	inactive: -1.46%
O=[N+]([O-])c1ncn(CCn2ncnc2[N+](=O)[O-])n1	inactive: 0.224%
CC(=O)N1C2C3N(C(C)=O)C1C1N(C(C)=O)C(C(N1C(C)=O)N3C(C)=O)N2C(C)=O	inactive: -0.0273%
O=[N+]([O-])c1cccc2n[nH]nc12	inactive: -1.38%
O=[N+]([O-])c1cc([N+](=O)[O-])c(CCNc2ccccc2)c([N+](=O)[O-])c1	inactive: -2.19%
CCc1nc2c(n1)c1c(non1O)c1c2no[n+]1[O-]	inactive: 46.5%
Cc1ccc(NP(=O)(Oc2ccccc2)Oc2ccccc2)nc1	inactive: -0.447%
COc1ccc(C2=NCC(CBr)S2)cc1 (stereo unspecified)	inactive: -2.38%
CN(C)C(=O)OCCc1n(C)cc[n+]1C	inactive: -0.346%
CC(C)=N/N=C(\N)N[N+](=O)[O-]	inactive: 1.83%
C[N+]1=C2C=CC=CC=C2SC12C([N+](=O)[O-])=CC([N+](=O)[O-])=C[C-]2[N+](=O)[O-] (stereo unspecified)	inactive: 3.79%
Nc1ccc([As](=O)(O)c2ccc(N)cc2)cc1	inactive: -1.21%
CCN(/C(=N/P(=O)(N1CCOCC1)N1CCOCC1)N1CCOCC1)c1ccc(OC)cc1	inactive: 0.444%
Cc1ccc(OP(=O)(Nc2nccs2)Oc2ccc(C)cc2)cc1	inactive: -2.16%
COc1ccccc1OP(=O)(Nc1ccc(C)cn1)Oc1ccccc1OC	inactive: -3.76%
Clc1ccc(Cl)c(NC2=NCC(CBr)S2)c1 (stereo unspecified)	inactive: -0.586%
CN1CCCC(OC(=O)C(c2ccccc2)c2ccccc2)C1 (stereo unspecified)	inactive: -28.2%
NC(=O)c1cc([N+](=O)[O-])cc([N+](=O)[O-])c1N	inactive: 1.11%
Cc1ccc(N/C(=N/P(=O)(N2CCOCC2)N2CCOCC2)N2CCOCC2)cc1	inactive: -1.21%
CN(C(=O)Cc1ccc(Cl)c(Cl)c1)[C@H]1CCCC[C@H]1N1CCCC1	inactive: 2.99%
CC(C)CC(=O)NC(Sc1ccc(Cl)cc1)C(Cl)(Cl)Cl (stereo unspecified)	inactive: -0.179%
Nc1cc(N)c2nonc2c1[N+](=O)[O-]	inactive: 1.46%
Cc1c2non([O-])c-2c(C)[n+](=O)[n+]1[O-]	inactive: -1.91%

SMILES	inhibition
O=C(NC(Sc1ccncn1)C(Cl)(Cl)Cl)c1ccccc1 (stereo unspecified)	inactive: -0.936%
Oc1ccccc1CNc1ccccn1	inactive: -5.94%
CN(C(=O)Cc1ccc(Cl)c(Cl)c1)[C@H]1CCCC[C@@H]1N1CCCC1	inactive: 0.354%
Cc1ccc(NP(=O)(Oc2ccccc2F)Oc2ccccc2F)nc1	inactive: -1.68%
CCOP(=O)(Nc1ccccc1)OCC	inactive: 5.03%
Cc1cc(SC(NC(=O)c2ccc(F)cc2)C(Cl)(Cl)Cl)ncn1 (stereo unspecified)	inactive: -1.84%
O=C(O)c1ccccc1[As](=O)(O)O	inactive: -2.27%
CC(=O)Nc1ccc([As](=O)(O)O)cc1	inactive: -1.33%
O=P(Nc1nc2ccc(Cl)cc2s1)(c1ccccc1)c1ccccc1	inactive: -0.488%
CCN(N=Nc1nonc1N)c1nonc1N	inactive: 4.04%
Nc1cccc2ccc([As](=O)(O)O)cc12	inactive: 0.112%
O=[N+]([O-])c1cc([N+](=O)[O-])c(CCN2CCOCC2)c([N+](=O)[O-])c1	inactive: 2.7%
O=C(NC1CCS(=O)(=O)C1)NP(=S)(Oc1ccccc1)Oc1ccccc1 (stereo unspecified)	inactive: 1.13%
CCNC(=S)/N=C(\N)N[N+](=O)[O-]	inactive: -0.636%
Cc1ccc(NP(=O)(Oc2cccc(C)c2)Oc2cccc(C)c2)nc1	inactive: -5.94%
CCOC(=O)NC(Sc1ccccc1)C(Cl)(Cl)Cl (stereo unspecified)	inactive: 1.55%
c1ccc(-c2nn[nH]n2)c(-c2nn[nH]n2)c1	inactive: -0.514%
CN(C)C(=O)Oc1noc2ccccc12	inactive: 2.34%
Cc1ccccc1OP(=O)(Nc1ccccn1)Oc1ccccc1C	inactive: -0.183%
CC(NC(=O)COC(=O)C(O)(c1ccccc1)c1ccccc1)c1ccccc1 (stereo unspecified)	inactive: -0.858%
CC(=O)NC(SC(=S)N(CC(C)C)CC(C)C)C(Cl)(Cl)Cl (stereo unspecified)	inactive: -0.764%
Cc1ccc(OP(=O)(Nc2ccccn2)Oc2ccc(C)cc2)cc1	inactive: 1.21%
COC(=O)c1cc2c(s1)N=C(c1ccccc1)N(C)P2(=O)N1CCOCC1 (stereo unspecified)	inactive: 0.564%
CCC(=O)N1C2C3N(C(=O)CC)C1C1N(C(=O)CC)C(C(N1C(=O)CC)N3C(=O)CC)N2C(=O)CC	inactive: -0.975%
O=C(OC1CN2CCC1CC2)c1ccccc1 (stereo unspecified)	inactive: 0.41%
CC(C)(C)C(=O)NC(Sc1ccccc1)C(Cl)(Cl)Cl (stereo unspecified)	inactive: -1.68%

SMILES	inhibition
CCOc1ccc(C2=NCC(CBr)S2)cc1 (stereo unspecified)	inactive: -1.12%
O=P1(Nc2nc3ccc(Cl)cc3s2)COc2ccccc2O1 (stereo unspecified)	inactive: 3.73%
CC(=O)Nc1ccc(Oc2c([N+](=O)[O-])cc([N+](=O)[O-])cc2[N+](=O)[O-])cc1	inactive: -1.36%
CC(=O)Nc1ccc([As](=O)(O)O)c(O)c1	inactive: -0.465%
CC(=O)c1ccc(N2CC2c2ccncc2)cc1 (stereo unspecified)	inactive: -0.0541%
C[C@@H]1C=CCP(=O)(Oc2ccccc2)O1 (stereo partly specified)	inactive: -2.72%
C[C@H]1OP(=O)(Oc2ccccc2)C[C@@H]2O[C@@H]21 (stereo partly specified)	inactive: -1.41%
c1nnnn1CCn1cnnn1	inactive: -0.82%
O=P(Nc1nccs1)(c1ccccc1)c1ccccc1	inactive: -1.57%
CC(C)C(=O)NC(Sc1ccccc1)C(Cl)(Cl)Cl (stereo unspecified)	inactive: -1.86%
C[C@H]1OP(=O)(Oc2ccccc2)[C@H](O)[C@H](O)[C@H]1N=[N+]=[N-] (stereo partly specified)	inactive: -1.5%
O=P(Nc1nc2ccccc2s1)(c1ccccc1)c1ccccc1	inactive: -2.1%
CN(C)C1(CNC(=O)c2ccc(Cl)c(S(N)(=O)=O)c2)CCCCC1	inactive: -3.32%
O=P(Nc1ccccn1)(c1ccc(Br)cc1)c1ccc(Br)cc1	inactive: -1.32%
Nc1ccc([As](=O)(O)c2ccc([N+](=O)[O-])cc2)cc1	inactive: -2.23%
C(Cc1nn[nH]n1)Cc1nn[nH]n1	inactive: -0.397%
O=C(OC1CN2CCC1CC2)c1cccc(Cl)c1 (stereo unspecified)	inactive: 0.363%
CC(=O)NC(SC(=S)N(C)C)C(Cl)(Cl)Cl (stereo unspecified)	inactive: -2.96%
O=[N+]([O-])c1ncn(CCn2cnc([N+](=O)[O-])n2)n1	inactive: -0.193%
O=[N+]([O-])c1ccc(O)c(/C=N/Nc2ccc([N+](=O)[O-])cc2[N+](=O)[O-])c1	inactive: -0.892%
O=[As](O)(c1ccccc1)c1ccc(O)cc1	inactive: -0.566%
O=C(/C=C/c1ccccc1)OC1CN2CCC1CC2 (stereo unspecified)	inactive: -1.46%
CN(C)C1(CNC(=O)c2ccc(S(C)(=O)=O)cc2)CCCCC1	inactive: -2.29%
Cc1ccc(C(=O)OC2CN3CCC2CC3)cc1 (stereo unspecified)	inactive: -0.717%
CC1CCC(C(C)C)C(OP(=O)(Nc2ccccn2)c2ccccc2)C1 (stereo unspecified)	inactive: -1.85%
Cc1nn(-c2ccccc2)c2c1P(=O)(N1CCOCC1)N(C)C(c1ccccc1)=N2 (stereo unspecified)	inactive: -0.775%

SMILES	inhibition
NS(=O)(=O)c1cccc(NC(=O)COC(=O)C(O)(c2ccccc2)c2ccccc2)c1	inactive: 6.46%
O=P1(Nc2ccc(Br)cn2)COc2ccccc2OC1	inactive: 0.3%
Cc1ccc(OCC(=O)OC2CN3CCC2CC3)cc1 (stereo unspecified)	inactive: -0.826%
O=[As](O)(c1cccs1)c1cccs1	inactive: 1.18%
Nc1cccc([As](=O)(O)c2ccccc2)c1	inactive: -1%
O=P1(Nc2ncccn2)COc2ccccc2OC1	inactive: -1.64%
CC(C)(C)C(=O)NC(Sc1ncccn1)C(Cl)(Cl)Cl (stereo unspecified)	inactive: -2.55%
Clc1n[nH]nc1-c1nn[nH][15n]1	inactive: -3.65%
CN(CCCl)Cc1cc(Cl)c(NC2=NCCN2)c(Cl)c1	inactive: 0.531%
CCOP(=O)(Nc1ccc(C)cn1)OCC	inactive: 1.16%
CCOP(=O)(NC(=NC(C)c1ccccc1)NC(C)c1ccccc1)OCC (stereo unspecified)	inactive: -1.65%
CCC1=CC2Cc3nc4ccc(Cl)cc4c(N)c3C(C1)C2 (stereo unspecified)	inactive: -0.502%
O=P1(Nc2ccccn2)COc2ccccc2OC1	inactive: -2%
CC1(CBr)Cn2c(nc3ccccc3c2=O)S1 (stereo unspecified)	inactive: -1.95%
O=[As](O)(c1ccccc1Br)c1ccccc1Br	inactive: -1%
CN(C(=O)Cc1ccc(Cl)c(Cl)c1)[C@@H]1CCCC[C@H]1N1CCCC1	inactive: 0.186%
CC(C)/C=N\N=C(\N)N[N+](=O)[O-]	inactive: -1.94%
COc1ccccc1CNC(=O)COC(=O)C(O)(c1ccccc1)c1ccccc1	inactive: -2.18%
O=[As](O)(c1cccc(O)c1)c1cccc(O)c1	inactive: -0.47%
Cc1cccc(OCC(=O)OC2CN3CCC2CC3)c1 (stereo unspecified)	inactive: -0.82%
CS(=O)(=O)c1ccc(Cl)c(NC(=O)COC(=O)C(O)(c2ccccc2)c2ccccc2)c1	inactive: 2.32%
COc1cc(C(=O)NCC2(N3CCOCC3)CCCCC2)cc(Cl)c1OC(C)C	inactive: -3.63%
O=C(OC1CN2CCC1CC2)c1ccc(Cl)cc1 (stereo unspecified)	inactive: -0.395%
